# Rce1 inh: inhibitors of yeast Ras-converting enzyme | Q03530 | yeast membranes, quenched prenylated peptide cleavage fluorescence | calls only | hit rate 0.27% among 290,000;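 active means fall in fluorescence gain of 50% or more versus controls, with final raw signal at or below 3038400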;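 further: plate controls were neutral control wells for no effect and wells lacking membranes for full effect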
# Pemphigus Ab inh: inhibitors of pemphigus antibody binding to human desmoglein-3 | DSG3-coupled beads, scFv-anti-DSG3-GFP binding, flow cytometry; active compounds read low | binding (percent of control), % at 10 µM | hit rate 0.48% among 310,000 | AID 588358;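 active means binding more than 3 SD below its plate's average and above zero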;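 further: hits lower antibody fragment binding to DSG3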
# Arrestin-AP2 inh: human beta-arrestin and AP2 interaction inhibition; FITC-arrestin peptide / GST-AP2 beads, flow cytometry; AP2 beta2 appendage carries R879A mutation; inhibition, % at 10 µM; hit rate 0.31% among 340,000;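 active means inhibition above a set limit, near 3 SD of compounds lacking own fluorescence, cut at about 54% in these data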;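 further: plate controls were DMSO wells for no effect and 5 µM unlabelled arrestin peptide for full effect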
#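 system = GST-tagged AP2 beta2-adaptin appendage (R879A) on 4 µm glutathione beads | reagent = FITC-labelled arrestin peptide probe, 50 nM final | schedule = compound with beads 12 min RT, then probe 1 h RT | signal = HyperCyt-sampled flow cytometry, FL1 channel, ex 488/em 535 nm | read-out = percent response from loss of bead-bound FITC fluorescence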
# Yeast UUG start: modulators of yeast start codon fidelity, primary screen, whole organism, S. cerevisiae, single point, plate reader | AID 602363, 2012 | actives 0.13% (n = 350,000) | activity score, % at 18.7 µM | S. cerevisiae UUG-firefly luciferase reporter, luminescence/redox ratio;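 active means replicate mean at a twofold rise or more, about +100% in these data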;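 further: firefly luciferase made from a UUG start codon reports start codon fidelity; reporter light over untreated wells divided by growth signal over untreated wells; some hits fall short of that in this replicate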
# Tb MetRS inh: Trypanosoma brucei MetRS inhibition | hit rate 0.4% among 360,000 | inhibition, % at 11.9 µM | purified T. brucei MetRS, ATP depletion, Kinase-Glo luminescence;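 active means inhibition above a per-plate cutoff of the control wells' mean inhibition plus 3 SD, cut at about 5.5% in these data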;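 further: 0% = DMSO wells median and 100% = median of wells with control inhibitor compound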
#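 Test system – parasite MetRS enzyme · Reagent – substrates ATP, L-methionine and bulk Escherichia coli tRNA · Doses – 11.9 µM compound single dose, 0.9% DMSO · Times – 15 min enzyme-compound preincubation, 2 h reaction, 10 min detection, 25 °C · Signal – Kinase-Glo luminescence, ATP depletion format · Controls – DMSO-only wells as low control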
# * = called active by the depositor; i = inactive; x = not tested or not shown; + = active, no number. Most compounds without a hit are left out; they make up all but 1.2% or so of the library.
no. | Structure | Yeast UUG start | Rce1 inh | Arrestin-AP2 inh
1 | NNc1nc2c(-c3ccc(F)cc3)nnn2c2ccccc12 | -13 | i | 20
2 | COc1ccc(-c2cn(CC[C@H]3CC[C@@H](NC(=O)NC(C)C)[C@@H](CO)O3)nn2)cc1 | -3 | x | x
3 | O=C(NCc1cccs1)Nc1cccc(Cl)c1 | -3 | i | 4
4 | COc1ccc(C2Nc3ccccc3C(=O)N2Cc2ccco2)cc1COc1ccc(NC(C)=O)cc1 (stereo not given) | -11 | i | 7
5 | COc1ccc(C2Nc3ccccc3C(=O)N2Cc2ccco2)cc1COc1ccccc1F (stereo not given) | x | i | 6
6 | C[C@@H]1CN([C@@H](C)CO)C(=O)c2cc(C3=CCCC3)cnc2O[C@@H]1CN(C)C(=O)C1CCC1 | 1 | x | x
7 | C/C(=N\Nc1ccc(S(=O)(=O)Nc2ccccc2)cc1[N+](=O)[O-])c1ccc(N2CCOCC2)cc1 | x | i | 15
8 | Cc1cccc(N2C(=O)c3cccc4c(N5CCCCC5)c([N+](=O)[O-])cc(c34)C2=O)c1C | x | + | 8

no. | Pemphigus Ab inh | Tb MetRS inh
1 | 85 | 0
2 | x | x
3 | 9.4* | -1
4 | 37* | -2
5 | 103 | 0
6 | x | x
7 | 76* | -1
8 | 103 | 1

# Continued.
no. | Structure | Yeast UUG start | Rce1 inh | Arrestin-AP2 inh
9 | O=C1c2cccc3c(N4CCOCC4)c([N+](=O)[O-])cc(c23)C(=O)N1c1cccc2ccccc12 | x | i | 1
10 | CC(C)C[C@@H](CNCC(=O)[C@H](Cc1c[nH]c2ccccc12)NC(=O)c1[nH]cnc1C(=O)N[C@@H](C)CN)NC(=O)c1nc[nH]c1C(=O)N[C@@H](CC(=O)O)C(=O)O | 154* | x | 16
11 | CC(C)C[C@@H](CNCC(=O)[C@H](Cc1c[nH]c2ccccc12)NC(=O)c1[nH]cnc1C(=O)N[C@H](CN)CC(C)C)NC(=O)c1nc[nH]c1C(=O)N[C@@H](CC(=O)O)C(=O)O | 154* | x | 11
12 | CC(C)C[C@@H](CN)NC(=O)c1nc[nH]c1C(=O)N[C@@H](Cc1ccccc1)C(=O)CNC[C@H](C)NC(=O)c1nc[nH]c1C(=O)N[C@@H](CC(=O)O)C(=O)O | 13 | x | 14
13 | COc1ccc2c(c1)cc(C(=O)N[C@@H](CCSC)C(=O)N1CCC(C(=O)O)CC1)n2C | 2 | + | -3
14 | C[C@H](NC(=O)c1cc2cc(Cl)ccc2n1C)C(=O)N1CCC(C(=O)O)CC1 | -8 | i | 42
15 | Cc1ccc(S(=O)(=O)N(C)C[C@H]2Oc3c(NC(=O)Nc4ccccc4)cccc3C(=O)N([C@@H](C)CO)C[C@@H]2C)cc1 | 13 | x | x
16 | CCCN(C)C[C@@H]1Oc2cc(-c3ccccc3C)ccc2S(=O)(=O)N([C@H](C)CO)C[C@@H]1C | 9 | x | x

no. | Pemphigus Ab inh | Tb MetRS inh
9 | 118 | 0
10 | 112 | 11*
11 | 158 | 6.8*
12 | 109 | 1
13 | 92 | 0
14 | 97 | -2
15 | x | x
16 | x | x

# Record cards (already shown). Order of values: Yeast UUG start, Rce1 inh, Arrestin-AP2 inh, Pemphigus Ab inh, Tb MetRS inh
# Cc1ccc(S(=O)(=O)N(C)C[C@H]2Oc3c(NC(=O)Nc4ccccc4)cccc3C(=O)N([C@@H](C)CO)C[C@@H]2C)cc1 is listed as 13, x, x, x, x
# CCCN(C)C[C@@H]1Oc2cc(-c3ccccc3C)ccc2S(=O)(=O)N([C@H](C)CO)C[C@@H]1C is listed as 9, x, x, x, x

# Later entries
no. | Structure | Yeast UUG start | Rce1 inh | Arrestin-AP2 inh
17 | Cc1cnc(NS(=O)(=O)c2ccccc2)c(C)n1 | -10 | i | 14
18 | CCSc1nnc(NC(=O)CSc2nnc(CNC(=O)c3ccccc3F)o2)s1 | -32 | i | 11
19 | COc1cccc(NC(=O)CSc2nnc(CNC(=O)c3ccccc3F)o2)c1 | -24 | i | -5
20 | Cc1nn(C)cc1NC(=O)C[C@@H]1CC[C@@H]2[C@H](COc3ccc(NC(=O)NC(C)C)cc3C(=O)N2C)O1 | -1 | x | x
21 | COc1ccc(OC)c(Nc2cc(C)nc3nc(C)nn23)c1 | -17 | i | 17
22 | O=C(CN1C(=O)NC2(CCCC2)C1=O)Nc1cccc(Cl)c1Cl | x | i | 34
23 | CCOC(=O)c1cc(-c2nnc(-c3ccc(Cl)cc3)o2)c(C)nc1C | -15 | i | 5
24 | CCOC(=O)c1ccc(-c2nnc(-c3ccc(Cl)cc3Cl)o2)cc1 | -5 | i | -1

no. | Pemphigus Ab inh | Tb MetRS inh
17 | 66* | 0
18 | 54* | 0
19 | 105 | 0
20 | x | x
21 | 82* | 0
22 | 57* | -1
23 | 119 | -2
24 | 93* | -1

# New compounds follow.
no. | Structure | Yeast UUG start | Rce1 inh | Arrestin-AP2 inh
25 | COC(=O)C1=CN(Cc2ccccc2)C=C(C(=O)OC)C1c1ccc(OC)c(OC)c1 | 14 | x | 2
26 | CCOc1ccc(C2C(C(=O)OC)=CN(C(C)c3ccccc3)C=C2C(=O)OC)cc1 (stereo not given) | -4 | + | 2
27 | Cc1cccc(-c2cc3nc(-c4ccccc4)cc(N4CCC5(CC4)OCCO5)n3n2)c1 | 5 | + | -5
28 | Fc1cccc(-c2cc3nc(-c4ccccc4)cc(N4CCC5(CC4)OCCO5)n3n2)c1 | -10 | + | -3
29 | CCOC(=O)c1cc(-c2ccccc2)sc1NC(=O)C(C)Sc1nnnn1C (stereo not given) | -15 | + | 16
30 | COCCn1c(-c2ccc(-c3ccc([N+](=O)[O-])cc3Br)o2)nc2c1c(=O)[nH]c(=O)n2CC(C)C | 9 | i | 9
31 | COCCn1c(=O)[nH]c(=O)c2c1nc(-c1ccc(-c3ccc(Cl)cc3[N+](=O)[O-])o1)n2Cc1ccccc1 | x | i | x
32 | COc1ccc(-c2ccc(-c3nc4c(c(=O)[nH]c(=O)n4Cc4ccccc4)n3C)o2)c([N+](=O)[O-])c1 | -8 | i | 54

no. | Pemphigus Ab inh | Tb MetRS inh
25 | 100 | 0
26 | 90 | 0
27 | 106 | 0
28 | 107 | 0
29 | 99 | 0
30 | 78* | 0
31 | 96 | 1
32 | 76* | -1

# Part of the list above, in transposed form:
[25] COC(=O)C1=CN(Cc2ccccc2)C=C(C(=O)OC)C1c1ccc(OC)c(OC)c1
[28] Fc1cccc(-c2cc3nc(-c4ccccc4)cc(N4CCC5(CC4)OCCO5)n3n2)c1
assay / entry | 25 | 28
Yeast UUG start | 14 | -10
Rce1 inh | x | +
Arrestin-AP2 inh | 2 | -3
Pemphigus Ab inh | 100 | 107
Tb MetRS inh | 0 | 0

# (more compounds)
no. | Structure | Yeast UUG start | Rce1 inh | Arrestin-AP2 inh
33 | O=C1CC(C(=O)Nc2ccc(Cl)cc2)n2ncnc2N1 (stereo not given) | x | i | 38
34 | CCCN(C)C[C@@H]1Oc2cc(C#Cc3cccnc3)ccc2S(=O)(=O)N([C@@H](C)CO)C[C@@H]1C | -9 | x | x
35 | N#Cc1cc(N)c(Nc2ccccc2)cc1C#N | -20 | i | 27
36 | Cc1cc(C)cc(N(CC(=O)NC2CCC(C)CC2)S(=O)(=O)c2c(C)noc2C)c1 (stereo not given) | 10 | x | -7
37 | Cc1cc(C)cc(N(CC(=O)O)S(=O)(=O)c2c(C)noc2C)c1 | -8 | i | 4
38 | Cc1cc(=O)oc2cc(OCc3ccc(C(=O)OCC(=O)NC4CCS(=O)(=O)C4)cc3)ccc12 (stereo not given) | x | i | 26
39 | C[C@@H]1CCCCO[C@H](CN(C)C(=O)Nc2ccc3c(c2)OCO3)[C@@H](C)CN([C@H](C)CO)C(=O)c2cc(NC(=O)Nc3ccc(F)cc3)ccc2O1 | -21 | x | x
40 | CC1CCN(S(=O)(=O)c2ccc(N=NC3=C(O)CC(C)(C)CC3=O)cc2)CC1 | -16 | i | 18

no. | Pemphigus Ab inh | Tb MetRS inh
33 | -8.7* | -1
34 | x | x
35 | 107 | 8.2*
36 | 91* | 0
37 | 99 | 0
38 | 70* | -1
39 | x | x
40 | 7.6* | -1

# Following part.
no. | Structure | Yeast UUG start | Rce1 inh | Arrestin-AP2 inh
41 | CC1(C)CC(=O)C(N=Nc2cccc(S(=O)(=O)N3CCOCC3)c2)=C(O)C1 | x | i | 8
42 | COc1ccccc1C#Cc1cnc2c(c1)C(=O)N([C@H](C)CO)C[C@H](C)[C@@H](CN(C)C(C)=O)O2 | 10 | x | x
43 | C/C=C/c1ccc2c(c1)O[C@H](CN(C)C(=O)COC)[C@H](C)CN([C@H](C)CO)S2(=O)=O | -9 | x | x
44 | CS(=O)(=O)c1ccccc1C(=O)NCCC(c1ccccc1)c1ccccc1 | 5 | i | 12
45 | CCCN1C[C@@H](C)[C@H](OC)CN(C)C(=O)c2cc(NC(=O)c3ccccc3F)ccc2OC[C@H]1C | 23 | x | x

no. | Pemphigus Ab inh | Tb MetRS inh
41 | 101 | -1
42 | x | x
43 | x | x
44 | 45* | -2
45 | x | x

# Compound activity from PubChem BioAssay.
